One block for each molecule: values may come before it.
Target: T1, EPO/EPOR interaction (EPOR-CD131-Fc and EPO) (Homo sapiens, UniProt P19235+P32927)
T1 construct: Chimeric Fc fusion proteins of the extracellular domains of human EPOR and human CD131; purchased Sino Biological CT010-H02H
T1 sequence (P19235 25-250 limits assumed): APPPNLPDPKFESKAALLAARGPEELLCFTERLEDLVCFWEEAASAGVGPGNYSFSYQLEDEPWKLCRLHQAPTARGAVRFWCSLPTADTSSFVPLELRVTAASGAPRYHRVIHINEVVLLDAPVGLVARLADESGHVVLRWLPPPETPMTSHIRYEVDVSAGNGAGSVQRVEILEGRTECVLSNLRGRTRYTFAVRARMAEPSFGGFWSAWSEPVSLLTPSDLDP
T1 sequence (P32927 17-443 limits assumed): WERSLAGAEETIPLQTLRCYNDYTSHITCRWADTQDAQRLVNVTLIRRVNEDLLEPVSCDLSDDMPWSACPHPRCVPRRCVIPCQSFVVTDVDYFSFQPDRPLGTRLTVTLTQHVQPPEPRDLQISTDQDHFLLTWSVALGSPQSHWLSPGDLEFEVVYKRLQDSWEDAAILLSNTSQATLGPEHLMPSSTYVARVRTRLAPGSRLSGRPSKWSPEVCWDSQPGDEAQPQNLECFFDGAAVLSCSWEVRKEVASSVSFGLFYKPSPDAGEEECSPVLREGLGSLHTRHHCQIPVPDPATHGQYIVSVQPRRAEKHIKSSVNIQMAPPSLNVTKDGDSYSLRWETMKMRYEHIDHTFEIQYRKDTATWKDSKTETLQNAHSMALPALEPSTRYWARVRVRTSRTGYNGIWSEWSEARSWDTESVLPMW
Test: Octet blocking of the EPO/EPOR interaction by hybridoma supernatants
Assay type: binding
Details: EPO 10 nM

blocking of the EPO/EPOR interaction: did not block
B1: EPORab - M80: hybridoma antibody clone, VH/VK in Table 10 (antibody, V domains shown)
VH: QVQLVESGGGLVKPGGSLRLSCAASGFTFSDSYMSWIRQAPGKGLEWVSYISNSGSYMYYADSVKGRFTISRDNAKNSLYLQMNNLRAEDTAVYYCARDKLGIGDYWGQGTLVTVSS
VL: DIVMTQSPLSLPVTPGEPASISCRSSQSLLHSNGYNYLDWYLQKPGQSPQLLIYLGSNRASGVPDRFSGSGSGTDSTLKISRVEAEDVGVYYCMQVLQIPLTFGGGTKVEIR

blocking of the EPO/EPOR interaction: partial blocking
B2: EPORab - M26: hybridoma antibody clone, VH/VK in Table 10 (antibody, V domains shown)
VH: QVQLVQSGVEVKKPGASVKVSCKASGYAFSNNDISWVRQAPGQGLEWMAWITTSNGNTNYAPKLQGRVTMTTDTSTSTAYMELRSLKSDDTAVYYCARGGRTGYFDYWGQGTLVTVSS
VL: B1 VL

— US12637513B2, “Method of treating cancer by administering an inhibitor of erythropoietin receptor activity comprising either erythropoietin receptor or erythropoietin protein” (ImmunEdge, Inc., priority 2022, dated 2026)
